Assay results reported in patent US10287286B2, “Compounds” (Takeda Pharmaceutical Company Limited, priority 2015, dated 2019).

Amino acid sequences for entries named in this document (tags omitted).
UniProt Q96KS0, whole entry: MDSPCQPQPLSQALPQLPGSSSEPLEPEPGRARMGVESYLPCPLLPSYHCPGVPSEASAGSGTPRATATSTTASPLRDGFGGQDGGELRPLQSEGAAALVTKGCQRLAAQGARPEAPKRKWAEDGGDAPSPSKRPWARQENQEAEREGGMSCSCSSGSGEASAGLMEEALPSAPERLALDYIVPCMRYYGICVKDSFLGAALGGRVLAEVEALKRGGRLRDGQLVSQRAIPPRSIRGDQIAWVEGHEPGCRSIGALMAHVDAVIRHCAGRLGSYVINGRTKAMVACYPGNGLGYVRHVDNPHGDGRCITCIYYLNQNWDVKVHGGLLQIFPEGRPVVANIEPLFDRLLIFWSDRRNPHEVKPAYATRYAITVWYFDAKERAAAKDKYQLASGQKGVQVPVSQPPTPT

Each compound was assayed against PHD1 enzyme (residues 1-407) (Homo sapiens (Human), UniProt Q96KS0) (assay: PHD1 Enzyme Assay (UPLC-MS detection of hydroxylated peptide product)). Settings: 20 nM, 60 min pre-incubation at room temperature.
Type: biochemical

Row | IC50 [µM] | Compound
1 | 0.208 | N#Cc1ccc(-c2cc(NCC3COC3)cc3ncnn23)cc1F [Example 125, 2-fluoro-4-{7-[(oxetan-3-ylmethyl)amino]-[1,2,4]triazolo[1,5-a]pyridin-5-yl}benzonitrile]
2 | 0.047 | CC1(CNc2cc(-c3ccc(C#N)c(F)c3)n3ncnc3c2)COC1 [Example 127, 2-fluoro-4-(7-{[(3-methyloxetan-3-yl)methyl]amino}-[1,2,4]triazolo[1,5-a]pyridin-5-yl)benzonitrile]
3 | 0.139 | N#Cc1ccc(-c2cc(OCCN3CCCC3)cc3ncnn23)cc1F [Example 130, 2-fluoro-4-{7-[2-(pyrrolidin-1-yl)ethoxy]-[1,2,4]triazolo[1,5-a]pyridin-5-yl}benzonitrile]
4 | 0.168 | N#Cc1ccc(-c2cc(OCC3CCCO3)cc3ncnn23)cc1F (stereo not shown) [Example 131]
5 | 0.48 | N#Cc1ccc(-c2cc(OCCN3CCCC3=O)cc3ncnn23)cc1F [Example 132, 2-fluoro-4-{7-[2-(2-oxopyrrolidin-1-yl)ethoxy]-[1,2,4]triazolo[1,5-a]pyridin-5-yl}benzonitrile]
6 | 2.3 | N#Cc1ccc(-c2cc(OCC3CCOC3)cc3ncnn23)cc1F (stereo not shown) [Example 133]
7 | 0.229 | N#Cc1ccc(-c2cc(N3CCCC3=O)cc3ncnn23)cc1F [Example 134, 2-fluoro-4-[7-(2-oxopyrrolidin-1-yl)-[1,2,4]triazolo[1,5-a]pyridin-5-yl]benzonitrile]
8 | 0.24 | N#Cc1ccc(-c2cc(N3CCOC3=O)cc3ncnn23)cc1F [Example 135, 2-fluoro-4-[7-(2-oxo-1,3-oxazolidin-3-yl)-[1,2,4]triazolo[1,5-a]pyridin-5-yl]benzonitrile]
9 | 3.22 | CC(=O)N(C)c1cc(-c2ccc(C#N)c(F)c2)n2ncnc2c1 [Example 136, N-[5-(4-cyano-3-fluorophenyl)-[1,2,4]triazolo[1,5-a]pyridin-7-yl]-N-methylacetamide]
10 | 0.145 | N#Cc1ccc(-c2cc(N3CCOCC3)cc3ncnn23)cc1F [Example 137, 2-fluoro-4-[7-(morpholin-4-yl)-[1,2,4]triazolo[1,5-a]pyridin-5-yl]benzonitrile]
11 | 0.17 | COC1CN(c2cc(-c3ccc(C#N)c(F)c3)n3ncnc3c2)C1 [Example 138, 2-fluoro-4-[7-(3-methoxyazetidin-1-yl)-[1,2,4]triazolo[1,5-a]pyridin-5-yl]benzonitrile]
12 | 0.077 | CC(=O)Nc1cc(-c2ccc(C#N)c(F)c2)n2ncnc2c1 [Example 139, N-[5-(4-cyano-3-fluorophenyl)-[1,2,4]triazolo[1,5-a]pyridin-7-yl]acetamide]
13 | 0.115 | N#Cc1ccc(-c2cc(N3CC4(COC4)C3)cc3ncnn23)cc1 [Example 141, 4-(7-{2-oxa-6-azaspiro[3.3]heptan-6-yl}-[1,2,4]triazolo[1,5-a]pyridin-5-yl)benzonitrile]
14 | 0.027 | N#Cc1ccc(-c2cc(N)cc3ncnn23)cc1F [Example 146, 4-{7-Amino-[1,2,4]triazolo[1,5-a]pyridin-5-yl}-2-fluorobenzonitrile]
15 | 0.126 | N#Cc1ccc(-c2cc(NS(=O)(=O)C3CC3)cc3ncnn23)cc1F [Example 148, N-[5-(4-Cyano-3-fluorophenyl)-[1,2,4]triazolo[1,5-a]pyridin-7-yl]cyclopropanesulfonamide]
16 | 0.13 | N#Cc1ccc(-c2cc(NC(=O)C3CCC3)cc3ncnn23)cc1F [Example 155, N-[5-(4-cyano-3-fluorophenyl)-[1,2,4]triazolo[1,5-a]pyridin-7-yl]cyclobutanecarboxamide]
17 | 0.129 | N#Cc1ccc(-c2cc(NC(=O)CC3CCOCC3)cc3ncnn23)cc1F [Example 156, N-[5-(4-cyano-3-fluorophenyl)-[1,2,4]triazolo[1,5-a]pyridin-7-yl]-2-(oxan-4-yl)acetamide]
18 | 0.091 | N#Cc1ccc(-c2cc(NC(=O)CN3CCCCC3)cc3ncnn23)cc1F [Example 158, N-[5-(4-cyano-3-fluorophenyl)-[1,2,4]triazolo[1,5-a]pyridin-7-yl]-2-(piperidin-1-yl)acetamide]
19 | 0.147 | N#Cc1ccc(-c2cc(NC(=O)[C@@H]3CCCO3)cc3ncnn23)cc1F [Example 159, (2S)-N-[5-(4-cyano-3-fluorophenyl)-[1,2,4]triazolo[1,5-a]pyridin-7-yl]oxolane-2-carboxamide]
20 | 0.117 | N#Cc1ccc(-c2cc(NC(=O)C3CCOC3)cc3ncnn23)cc1F (stereo not shown) [Example 162, N-[5-(4-cyano-3-fluorophenyl)-[1,2,4]triazolo[1,5-a]pyridin-7-yl]oxolane-3-carboxamide]
21 | 0.088 | CC1(C(=O)Nc2cc(-c3ccc(C#N)c(F)c3)n3ncnc3c2)CC1 [Example 163, N-[5-(4-cyano-3-fluorophenyl)-[1,2,4]triazolo[1,5-a]pyridin-7-yl]-1-methylcyclopropane-1-carboxamide]
22 | 0.131 | N#Cc1ccc(-c2cc(NC(=O)C3CCCOC3)cc3ncnn23)cc1F (stereo not shown) [Example 164, N-[5-(4-cyano-3-fluorophenyl)-[1,2,4]triazolo[1,5-a]pyridin-7-yl]oxane-3-carboxamide]
23 | 0.65 | CC1(C(=O)Nc2cc(-c3ccc(C#N)c(F)c3)n3ncnc3c2)CCOCC1 [Example 165, N-[5-(4-cyano-3-fluorophenyl)-[1,2,4]triazolo[1,5-a]pyridin-7-yl]-4-methyloxane-4-carboxamide]
24 | 0.63 | CC1(C(=O)Nc2cc(-c3ccc(C#N)c(F)c3)n3ncnc3c2)COC1 [Example 166, N-[5-(4-cyano-3-fluorophenyl)-[1,2,4]triazolo[1,5-a]pyridin-7-yl]-3-methyloxetane-3-carboxamide]
25 | 0.225 | N#Cc1ccc(-c2cc(NC(=O)C3COC3)cc3ncnn23)cc1F [Example 167, N-[5-(4-cyano-3-fluorophenyl)-[1,2,4]triazolo[1,5-a]pyridin-7-yl]oxetane-3-carboxamide]

The next lines start with the compound.

Row | Compound | IC50 [µM]
26 | N#Cc1ccc(-c2cc(NC(=O)c3ccccc3)cc3ncnn23)cc1 [Example 123, N-[5-(4-cyanophenyl)-[1,2,4]triazolo[1,5-a]pyridin-7-yl]benzamide] | 0.151
27 | CC(C)(C)OC(=O)Nc1cc(-c2ccc(C#N)c(F)c2)n2ncnc2c1 [Example 124, tert-butyl N-[5-(4-cyano-3-fluorophenyl)-[1,2,4]triazolo[1,5-a]pyridin-7-yl]carbamate] | 0.049
28 | N#Cc1ccc(-c2cc(NCCC(F)(F)F)cc3ncnn23)cc1F [Example 126, 2-fluoro-4-{7-[(3,3,3-trifluoropropyl)-amino][1,2,4]triazolo-[1,5-a]pyridin-5-yl}benzonitrile] | 0.053
29 | N#Cc1ccc(-c2cc(NCC3(c4ccccc4)COC3)cc3ncnn23)cc1F [Example 128, 2-fluoro-4-(7-{[(3-phenyloxetan-3-yl)methyl]amino}-[1,2,4]triazolo[1,5-a]pyridin-5-yl)benzonitrile] | 0.215
30 | CN(C)CCOc1cc(-c2ccc(C#N)c(F)c2)n2ncnc2c1 [Example 129, 4-{7-[2-(dimethylamino)ethoxy]-[1,2,4]triazolo[1,5-a]pyridin-5-yl}-2-fluorobenzonitrile] | 0.299
31 | COC1CN(c2cc(-c3ccc(C#N)cc3)n3ncnc3c2)C1 [Example 140, 4-[7-(3-methoxyazetidin-1-yl)-[1,2,4]triazolo[1,5-a]pyridin-5-yl]benzonitrile] | 0.151
32 | CC(C)(C)OC(=O)N1CCN(c2cc(-c3ccc(C#N)cc3)n3ncnc3c2)CC1 [Example 143, tert-butyl 4-[5-(4-cyanophenyl)-[1,2,4]triazolo[1,5-a]pyridin-7-yl]piperazine-1-carboxylate] | 0.437
33 | CC(C)(C)OC(=O)N1CC2(C1)CN(c1cc(-c3ccc(C#N)cc3)n3ncnc3c1)C2 [Example 144, tert-butyl 6-[5-(4-cyanophenyl)-[1,2,4]triazolo[1,5-a]pyridin-7-yl]-2,6-diazaspiro[3.3]heptane-2-carboxylate] | 0.145
34 | COC(=O)Nc1cc(-c2ccc(C#N)cc2C)n2ncnc2c1 [Example 145, methyl N-[5-(4-cyano-2-methylphenyl)-[1,2,4]triazolo[1,5-a]pyridin-7-yl]carbamate] | 0.066
35 | N#Cc1ccc(-c2cc(NS(=O)(=O)c3ccccc3)cc3ncnn23)cc1F [Example 149, N-[5-(4-cyano-3-fluorophenyl)-[1,2,4]triazolo[1,5-a]pyridin-7-yl]benzenesulfonamide] | 0.252
36 | N#Cc1ccc(-c2cc(NC(=O)Nc3ccccc3)cc3ncnn23)cc1F [Example 150, 3-[5-(4-Cyano-3-fluorophenyl)-[1,2,4]triazolo[1,5-a]pyridin-7-yl]-1-phenylurea] | 0.012
37 | COCCC(=O)Nc1cc(-c2ccc(C#N)cc2)n2ncnc2c1 [Example 151, N-[5-(4-cyanophenyl)-[1,2,4]triazolo[1,5-a]pyridin-7-yl]-3-methoxypropanamide] | 0.047
38 | N#Cc1ccc(-c2cc(NC(=O)Cc3ccccc3)cc3ncnn23)cc1 [Example 152, N-[5-(4-cyanophenyl)-[1,2,4]triazolo[1,5-a]pyridin-7-yl]-2-phenylacetamide] | 0.042
39 | N#Cc1ccc(-c2cc(NC(=O)CC(F)(F)F)cc3ncnn23)cc1F [Example 153, N-[5-(4-cyano-3-fluorophenyl)-[1,2,4]triazolo[1,5-a]pyridin-7-yl]-3,3,3-trifluoropropanamide] | 0.028
40 | COCC(=O)Nc1cc(-c2ccc(C#N)c(F)c2)n2ncnc2c1 [Example 154, N-[5-(4-cyano-3-fluorophenyl)-[1,2,4]triazolo[1,5-a]pyridin-7-yl]-2-methoxyacetamide] | 0.49
41 | CC1CC1C(=O)Nc1cc(-c2ccc(C#N)c(F)c2)n2ncnc2c1 (stereo not shown) [Example 157, N-[5-(4-cyano-3-fluorophenyl)-[1,2,4]triazolo[1,5-a]pyridin-7-yl]-2-methylcyclopropane-1-carboxamide] | 0.057
42 | CN(C)CC(=O)Nc1cc(-c2ccc(C#N)c(F)c2)n2ncnc2c1 [Example 161, N-[5-(4-cyano-3-fluorophenyl)-[1,2,4]triazolo[1,5-a]pyridin-7-yl]-2-(dimethylamino)acetamide] | 0.123
43 | N#Cc1ccc(-c2cc(NC(=O)C3CC3(F)F)cc3ncnn23)cc1F (stereo not shown) [Example 168, N-[5-(4-cyano-3-fluorophenyl)-[1,2,4]triazolo[1,5-a]pyridin-7-yl]-2,2-difluorocyclopropane-1-carboxamide] | 0.218
